This note sets out measurements from publication PMC10739260, “Shape-Based Virtual Screening of a Billion-Compound Library Identifies Mycobacterial Lipoamide Dehydrogenase Inhibitors” (ACS Bio & Med Chem Au, 2023).

Sequences of proteins named here, by UniProt entry; tags and fusion partners are left off. A change or cut given only in a name is not applied to a line headed by its entry.
UniProt P9WHH9: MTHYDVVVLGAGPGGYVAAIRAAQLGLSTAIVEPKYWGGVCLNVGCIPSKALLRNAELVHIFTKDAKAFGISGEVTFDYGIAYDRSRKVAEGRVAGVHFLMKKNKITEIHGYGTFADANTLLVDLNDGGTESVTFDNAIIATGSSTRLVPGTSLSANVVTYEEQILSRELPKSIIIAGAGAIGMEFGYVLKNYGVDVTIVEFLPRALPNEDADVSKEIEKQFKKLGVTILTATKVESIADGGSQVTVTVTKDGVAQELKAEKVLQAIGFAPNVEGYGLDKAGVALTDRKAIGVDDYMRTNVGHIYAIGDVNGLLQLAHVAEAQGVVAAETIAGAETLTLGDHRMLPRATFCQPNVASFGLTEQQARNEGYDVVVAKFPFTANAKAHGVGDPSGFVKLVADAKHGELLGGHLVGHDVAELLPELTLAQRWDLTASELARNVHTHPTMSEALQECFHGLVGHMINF

The target in this assay is T1, Mtb Lpd (Mycobacterium tuberculosis, UniProt P9WHH9).
T1 construct: made in house
Nature of the assay: Lpd enzyme assay (spectrophotometric, DTNB, lipoamide, NADH). The format is biochemical. The protocol: The Lpd enzyme assay was performed at a CRO with a previously reported protocol.[9],[11] Briefly, the Lpd activity was measured by a spectrophotometric assay with DTNB, lipoamide, and NADH. Final concentrations of components in the reaction mixture were as follows: 125 μM NADH, 125 μM DTNB, 40 μM NAD+, 75 μM lipoamide in 25 mM potassium phosphate, and 1 mM EDTA pH 7.0. Compounds were tested initially at 10 μM. Compounds showing significant inhibition at 10 μM were tested in dose–response from 100 to 0.005 μM by serial dilutions. Curves were fit, and IC50 values were calculated using Prism dose–response inhibition analysis (four-parameter fit).

The compound `CC(=O)Nc1cccc(NC(=O)CN(C)S(=O)(=O)c2cc(C)cc(C(F)F)c2)c1` [1 (TDI-13537)] came in with an IC50 of 160 nM. That is a sub-micromolar value.

In the case of `Cc1cc(S(=O)(=O)N2CCC[C@H]2C(=O)Nc2ccn(C)c(=O)c2)c2[nH]ncc2c1` [TDI-011002], the midpoint of inhibition, the IC50, lay at 51 nM.

As a reminder, the IC50 is the concentration needed to halve the response being measured. High values mean a need for much substance, low ones inhibition by little substance.
